Assay results as given in PMC6419574 (Bioorganic & Medicinal Chemistry Letters, 2019).

Target: fascin (Homo sapiens, UniProt Q16658)

| increase in binding affinity compared to 3 | improvement of fascin affinity over truncated compound 25 | weaker binding than the parent isoquinolinone | Structure (SMILES) |
| --- | --- | --- | --- |
| ≈ 14 fold |  |  | Cn1cc(NC(=O)c2cn(Cc3ccc(F)cc3)c(=O)c3ccccc23)cn1 [Compound 4, 2-(4-fluorobenzyl)-N-(1-methyl-1H-pyrazol-4-yl)-1-oxo-1,2-dihydroisoquinoline-4-carboxamide] |
|  | > 50 fold | 7 fold | Cn1cc(NC(=O)c2cn(Cc3ccc(Cl)c(Cl)c3)c(=O)c3cn[nH]c23)cn1 [Compound 19, 5-(3,4-dichlorobenzyl)-N-(1-methyl-1H-pyrazol-4-yl)-4-oxo-4,5-dihydro-1H-pyrazolo[4,3-c]pyridine-7-carboxamide] |
